Results on 6 compounds are retold here after PubChem BioAssay AID589 (National Center for Advancing Translational Sciences (NCATS), 2007).

The list shows a part of the results, in another mix than the full data. Results filed as inconclusive are left out. Activity calls are given as the source filed them. Rule as the data show it: active = max dye-equivalent concentration above about 10 nM; inconclusive = mostly about 1.1 nM to 9.6 nM; inactive = weaker than that.

This test is described as follows: qHTS Assay for Spectroscopic Profiling in 4-MU Spectral Region. Particulars: compound autofluorescence, 340/450 nm, 4-MU equivalents. The source says: NIH Molecular Libraries Screening Centers Network [MLSCN] NIH Chemical Genomics Center [NCGC] […] Occasionally, the artifactual effect may originate from the compounds own spectral or other biophysical properties which generally tend to track its assay concentration. Pre-screening/profiling the library with respect to the compounds spectral properties should help one exclude false positives early on. While the most informative fluorescent profiling data set is obtained by performing a full excitation and emission scan of each well by using a monochromator-based plate reader, such an approach is practical only on a very limited scale as scanning each well requires long time. An alternative approach, applied here, is to perform plate reader scans using selected excitation and emission wavelength pairs to generate a multidimensional relational database that correlates compound concentration and the respective relative fluorescence intensity at a given wavelength set. A standard curve of 4-methylumbelliferone (4-MU) present on each plate as six-point concentration series, was used to compute a normalized fluorescence response, termed dye-equivalent concentration, for each compound at each concentration.
NCGC Assay Protocol Summary: Buffer: 100 mM Tris buffer, pH 8.0 Dye standard plate: The wells in columns 1 through 4 of a Kalypsys polypropylene 1536-well compound plate were filled with standard solutions of fluorophore corresponding to the spectral region of interest. Solutions of 4-MU were placed in the following wells: A1, B1: 3 mM, A2, B2: 300 uM, A3, B3: 30 uM, A4, B4: zero (DMSO), C1, D1: 3 uM, C2, D2: 900 nM, C3, D3: 300 nM, C4, D4: zero (DMSO). Assay Steps: Six uL of buffer were dispensed to 1536-well Greiner black plates. Compounds and dye standards (23 nL) were transferred via Kalypsys PinTool. The plates were incubated for 15 min at room temperature, and then read on ViewLux (Perkin-Elmer) High-throughput CCD imager using 340 nm and 450 nm excitation and emission filter set. Keywords: NIH Roadmap, MLSCN, MLI, MLSMR, qHTS, NCGC, Fluorescent Profiling, 4MU, 4-MU
Take `CCOc1ncccc1C(=O)NCC1(N2CCOCC2)CCCCC1`: the outcome was inactive.

`O=C(O)C1(Nc2ccccc2)CCN(Cc2ccccc2)CC1`: the outcome was inactive.

For the compound `CCC(CO)(C(=O)OC1CN2CCC1CC2)c1ccccc1` (stereo unspecified), the outcome was inactive.

Turning to `N/C(=N\O)c1c(N)no[n+]1[O-]`, the outcome was inactive.

Take `N#CC1(Nc2ccccc2)CCN(CCc2ccccc2)CC1`: the outcome was inactive.

Turning to `O=C(OC1CN2CCC1CC2)C1c2ccccc2Oc2ccccc21` (stereo unspecified), the result was inactive.
